In PubChem BioAssay AID652067 (The Scripps Research Institute Molecular Screening Center, 2013):
The entries are a selection whose mix differs from that of the whole data set. Some structures show a salt or complex split into parts, the way the source records it. Activity calls are given as the source filed them.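 How the source made its calls: active means activation above the mean of all tested compounds plus 3 SD (cut at about 5.5% in these data); inactive means the rest.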

tested on: DAF-12 nuclear receptor (Haemonchus contortus); assay: hcDAF-12 driven luciferase reporter activation – cell-based, luminescence, HEK293, lit1-tk-luc reporter, primary screen (AID 652067); conditions: HEK293 hcDAF-12 lit1-tk-luc reporter, at 6.8 µM, hits give high values, 0% DMSO, 100% Δ7-dafachronic acid;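 further: 100% = response to 3 µM Δ7-dafachronic acid high control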

SMILES | activation
COc1ccccc1OP(C)(=O)Nc1ccc(C)cc1 (stereo not given) | inactive: -1.33%
Cc1ccc(NP(C)(=O)Oc2ccccc2)c(C)c1 (stereo not given) | inactive: -1.38%
CCOC(=O)c1ccc(NP(C)(=O)Oc2ccccc2)cc1 (stereo not given) | inactive: -2.17%
Cc1cc(C)cc(OP(C)(N)=O)c1 (stereo not given) | inactive: 0.71%
COc1ccccc1OP(C)(=O)Nc1cc(Cl)ccc1C (stereo not given) | inactive: -1.16%
COc1ccc(OP(C)(=O)Nc2cccc(F)c2)cc1 (stereo not given) | inactive: 1.43%
O=[N+]([O-])c1cc([N+](=O)[O-])c(Nc2cccnc2)c([N+](=O)[O-])c1 | inactive: -0.06%
O=[N+]([O-])c1ccc2c(c1)C=Nc1ccccc1O2 | inactive: -0.91%
CC(C)(C)c1ccc(OP(C)(=O)Nc2ccc(SC(F)(F)F)cc2)cc1 (stereo not given) | inactive: -2.47%
Cc1cccc(C)c1OP(C)(N)=O (stereo not given) | inactive: -1.55%
COc1ccccc1-c1ccccn1.O=[N+]([O-])c1cc([N+](=O)[O-])c(O)c([N+](=O)[O-])c1 | inactive: 0.54%
CCN(CC)CCCOC(=O)C(O)(c1ccccc1)c1ccccc1 | inactive: -0.33%
CCOC(=O)c1ccc(NP(C)(=O)Oc2ccc(OC)cc2)cc1 (stereo not given) | inactive: -3.26%
O=[N+]([O-])c1cc([N+](=O)[O-])c(O)c([N+](=O)[O-])c1.c1ccc(Oc2ccncc2)cc1 | inactive: 1.07%
CCOP(C)(=S)SCC(=O)NC(C)C(=O)O (stereo not given) | inactive: -1.46%
CP(=O)(Nc1ccccn1)Oc1ccc(Cl)cc1 (stereo not given) | inactive: 0.72%
Cc1cccc(C)c1OP(C)(=O)Nc1ccc(SC(F)(F)F)cc1 (stereo not given) | inactive: -2.12%
CP(=O)(Nc1ccc(SC(F)(F)F)cc1)Oc1ccc(Cl)cc1 (stereo not given) | inactive: -0.9%
CP(=O)(Oc1ccccc1)OC(c1ccccc1)C(F)(F)F (stereo not given) | inactive: 0.12%
CP(=O)(NC(=O)Nc1ccccc1)Oc1ccccc1 (stereo not given) | inactive: 1.77%
CCc1ccc(OP(C)(=O)N2CCN(c3ccc([N+](=O)[O-])cc3)CC2)cc1 (stereo not given) | inactive: -1.15%
Cc1cc(C)cc(OP(C)(=O)Nc2ccc(SC(F)(F)F)cc2)c1 (stereo not given) | inactive: 0.05%
CP(=S)(Nn1cnnc1)Oc1ccccc1 (stereo not given) | inactive: 1.94%
CP(=O)(Nc1ccccc1Br)Oc1ccccc1 (stereo not given) | inactive: 1.12%
COc1ccccc1OP(C)(=O)Nc1ccccc1 (stereo not given) | inactive: -0.15%
COc1ccccc1OP(C)(=O)Nc1c(C)cccc1C (stereo not given) | inactive: -0.28%
CN1CCCCC1COC(=O)C1(O)c2ccccc2CCc2ccccc21 (stereo not given) | inactive: -1.24%
COc1ccc(-c2ccccn2)cc1.O=[N+]([O-])c1cc([N+](=O)[O-])c(O)c([N+](=O)[O-])c1 | inactive: 3.3%

SMILES | activation
CCCOc1ccc(NP(C)(=O)Oc2ccc(Cl)cc2)cc1 (stereo not given) | inactive: -2.63%
CP(=O)(Nc1ccc(SC(F)(F)F)cc1)Oc1ccccc1 (stereo not given) | inactive: -1.35%
O=[N+]([O-])c1cc([N+](=O)[O-])c(Nc2nnnn2CCO)c([N+](=O)[O-])c1 | inactive: -0.88%
CCOC(=O)C(CC)C1=NC(C)(C)Cc2ccccc21.O=[N+]([O-])c1cc([N+](=O)[O-])c(O)c([N+](=O)[O-])c1 (stereo not given) | inactive: 0.29%
O=[N+]([O-])c1cc([N+](=O)[O-])c(-c2cnn(-c3ccccc3)c2)c([N+](=O)[O-])c1 | inactive: -2.37%
Cc1nc2ccc3ccccc3c2s1.O=[N+]([O-])c1cc([N+](=O)[O-])c(O)c([N+](=O)[O-])c1 | inactive: -0.34%
O=[N+]([O-])c1cc([N+](=O)[O-])c(-n2nnc3ccccc32)c([N+](=O)[O-])c1 | inactive: -0.63%
CN(Cc1cccnc1)C(=O)COc1ccc(Cl)c(Cl)c1.O=[N+]([O-])c1cc([N+](=O)[O-])c(O)c([N+](=O)[O-])c1 | inactive: -2.01%
Cc1ccc(C)c(NP(C)(=O)Oc2ccccc2)c1 (stereo not given) | inactive: -0.79%
Cc1cc(C)cc(OP(C)(=O)Nc2ccccn2)c1 (stereo not given) | inactive: 1.03%
CP(=O)(Nc1cccc(Br)c1)Oc1ccccc1 (stereo not given) | inactive: -0.08%
COc1ccccc1OP(C)(=O)Nc1cccc(Br)c1 (stereo not given) | inactive: -1.47%
CCOC(=O)c1ccc(NP(C)(=O)Oc2cc(C)cc(C)c2)cc1 (stereo not given) | inactive: 1.53%
Cc1cc(C)cc(OP(C)(=O)Nc2ccc(C)cc2C)c1 (stereo not given) | inactive: -0.69%
CC1=NCCc2c1[nH]c1ccccc21.O=[N+]([O-])c1cc([N+](=O)[O-])c(O)c([N+](=O)[O-])c1 | inactive: 0.75%
O=C(O)c1cccc(Nc2c([N+](=O)[O-])cc([N+](=O)[O-])cc2[N+](=O)[O-])c1 | inactive: -1.14%
Cc1c([N+](=O)[O-])cc([N+](=O)[O-])c(Br)c1[N+](=O)[O-] | inactive: -0.53%
CCN(CC)CCCOC(=O)C(O)(c1ccccc1)C1CCCCC1 (stereo not given) | inactive: -1.69%
CP(=O)(Nc1ccccc1)Oc1ccc(F)cc1 (stereo not given) | inactive: -1.31%
CCCCCOc1ccc(NP(C)(=O)Oc2ccc(Cl)cc2Cl)cc1 (stereo not given) | inactive: -0.7%
O=[N+]([O-])c1cc([N+](=O)[O-])c(OC2CCCCC2O)c([N+](=O)[O-])c1 (stereo not given) | inactive: -0.53%
CCN(CC)CCCNc1ccccc1[N+](=O)[O-].O=[N+]([O-])c1cc([N+](=O)[O-])c(O)c([N+](=O)[O-])c1 | inactive: 0.3%
CCOC(=O)c1ccc(NP(C)(=O)Oc2ccc(F)cc2)cc1 (stereo not given) | inactive: 0.95%
COc1ccc(OP(C)(=O)Nc2ccc(SC(F)(F)F)cc2)cc1 (stereo not given) | inactive: -1.34%
O=C(OC1CN2CCC1CC2)c1ccc([N+](=O)[O-])cc1 (stereo not given) | inactive: 1.87%
O=C(OCCN1CCN(CCOCc2ccccc2)CC1)C(O)(c1ccccc1)c1ccccc1 | inactive: -1.85%
COc1ccc2c(c1O)-c1c(O)c(OC)cc3c1[C@H](C2)[N+](C)(C)CC3.O=[N+]([O-])c1cc([N+](=O)[O-])c([O-])c([N+](=O)[O-])c1[O-] | inactive: 0.59%
